Publication PMC10812785, “Structures, Interactions and Activity of the N-Terminal Truncated Variants of Antimicrobial Peptide Thanatin” (Antibiotics, 2024)

By UniProt entry, the sequences of proteins in these tests, tags left out. Residues count along the entry.
UniProt P0ADV1, 28-159: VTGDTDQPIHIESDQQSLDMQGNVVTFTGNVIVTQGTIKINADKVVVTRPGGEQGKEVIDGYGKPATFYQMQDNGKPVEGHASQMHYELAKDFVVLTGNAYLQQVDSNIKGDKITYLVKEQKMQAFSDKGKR

Experiments:
[1] = ITC of peptide/LPS binding; parameters: species or system E. coli; details: 10 mM sodium phosphate, pH 7.0, 37 °C; for Kd / ΔH: 1 mM peptide into 50 μM E. coli LPS (O111:B4), single site binding model; for TΔS / ΔG: LPS, determined indirectly from thermodynamics equations
Description: (§1) Chemically synthesized PM15, PM15Y and PM15A peptides were obtained from GLBiochem^TM (Shanghai, China). Molecular weight of the peptides was confirmed by mass spectrometry. Bacterial strains were obtained from the American Type Culture Collection (ATCC, Manassas, VA, USA). Mueller–Hinton (MH) broth was purchased from Sigma-Aldrich^TM (Saint Louis, MO, USA) and Millipore-Sigma^TM (Saint Louis, MO, USA). 1-N-phenylnaphthylamine (NPN) and LPS (E. coli O111:B4) were purchased from Sigma Aldrich^TM.
(§2) ITC experiments were conducted by using a MicroCal ITC 200 calorimeter. Samples, LPS and peptides, were prepared in 10 mM sodium phosphate buffer, pH 7.0. LPS (50 µM) was placed in the sample cell, while the syringe contained 1 mM of peptide. In an individual experiment, 2.0 μL of peptide was titrated, with a total of 20 titrations, into the sample cell containing LPS at 37 °C with stirring speed adjusted to 750 rpm. For ITCs of peptides/LptAm, samples were prepared in 50 mM sodium phosphate buffer, 150 mM NaCl, pH 7.0. 25 μM of LptAm was loaded into the sample cell, whereas 250 μM of PM15 and PM15Y was placed in the syringe. ITC titrations were performed with 20 injections of 2 µL of peptide into sample cells at 25 °C with a stirring speed of 750 rpm. ITC data were analyzed by using a single site binding model in MicroCal Origin 5.0 software to obtain the association constant (Ka) and enthalpy change (ΔH). Other binding parameters, namely, dissociation constant (Kd), Gibbs free energy (ΔG) and entropy change (TΔS), were determined indirectly from thermodynamics equations.

E. coli cells [2] = assay: NPN fluorescence assay (outer-membrane permeabilization); type: cell-based; details: NPN 10 µM, peptide 1-16 µM, 10 mM sodium phosphate buffer, OD600~0.5, excitation 350 nm, emission 390-450 nm; Figure 1B
Protocol: Peptides induced in NPN fluorescence experiments were measured to define the extent of outer-membrane permeabilization of E. coli cells. NPN assay was carried out in a Cary Eclipse fluorescence spectrophotometer (Varian, Palo Alto, CA, USA) by using a quartz cuvette of 0.1 cm path-length. Mid-log-phase E. coli cells in LB media were centrifuged at 5000 rpm for 10 min and resuspended in 10 mM sodium phosphate buffer at an OD600~0.5. NPN (10 µM) fluorescence, excitation 350 nm, emission 390–450 nm, in bacterial cell suspension was obtained in the absence of peptide and in the presence of various concentrations, ranging from 1–16 µM, of peptides. The results were expressed as ΔF vs. peptide concentration in which the basal fluorescence was subtracted from the maximum intensity recorded for each peptide concentration.

[3] = tested on: Acenobacter baumannii ATCC BAA-1798; type: cell-based, A. baumannii
Description: as §1
(§3) Bacterial growth inhibition of PM15, PM15A and PM15Y peptides was estimated against a panel of bacterial strains, namely, E. coli ATCC25922, S. enterica ATCC 14028, K. pneumoniae ATCC 13883, A. baumannii ATCC BAA-1798, S. pyogenes ATCC 19615 and E. faecalis ATCC 29212, by using the broth dilution assay determining minimum inhibitory concentration (MIC). Typically, overnight bacterial cultures were grown to mid-log phase at 37 °C and then diluted in Mueller–Hinton (MH) broth to OD600 ~ 0.002. […] Bacterial inhibition was determined by absorbance of 96-well plates at OD600 nm by using a Cytation spectrophotometer (Agilent, Santa Clara, CA, USA). The minimum peptide concentration showing complete inhibition of bacterial growth was determined as the MIC value.

E. coli cells [4] = assay: Zeta potential of E. coli cells (surface charge neutralization); type: cell-based; details: 10 mM sodium phosphate buffer, pH 7, Figure 1A; for change in zeta potential of E. coli cells, in words: peptide 2-32 μM, three replicates of 100 runs
Protocol: All zeta potential measurements were performed on a Zeta Sizer Nano ZS (Malvern Instruments, Worcestershire, UK) equipped with a 633 nm He laser using zeta cells with gold electrodes. Typically, E. coli cells at a mid-log culture in LB media were harvested by centrifugation at 5000 rpm for 10 min and resuspended in 10 mM sodium phosphate buffer, pH 7. Zeta potential value of the bacterial cell suspension was determined for the free cells and with subsequent additions of peptide (2 μM to 32 μM). For each concentration, 100 runs were carried out and three replicates were executed.

[5] = tested on: representative strains of Gram-negative and Gram-positive bacteria; assay: Bacterial growth inhibition (MIC), panel of strains; type: cell-based; details: aged, about 5 years, MH broth
Description: as §1, §3

[6] = tested on: Salmonella enterica ATCC 14028; type: cell-based
Description: as §1, §3

LptAm protein of E. coli = biological target: T1, LptAm protein of E. coli (Escherichia coli, UniProt P0ADV1); assay: ITC of peptide/LptAm binding; details: 50 mM sodium phosphate, 150 mM NaCl, pH 7.0, 25 °C
T1 construct: Expression and purification of LptAm protein (residues 28–159), with a six His-tag ([…]) at the C-terminus; made in house; host or cells: E. coli BL21
Protocol: as §2
Expression and purification of LptAm protein (residues 28–159), with a six His-tag (SGRVEHHHHHH) at the C-terminus, was carried out by using a previously established method. Briefly, plasmid DNA coding for LptAm gene was transformed into E. coli BL21 competent cells in LB agar plates containing 100 µg/mL of ampicillin. Protein production from expressing E. coli was induced by 1 mM isopropyl β-d-1-thiogalactopyranoside (IPTG) at an OD600 value of 0.6–0.8 at 18 °C for 18 h. The bacteria cells were centrifuged at 6000 rpm, 4 °C for 15 min and resuspended in a lysis buffer (100 mM HEPES, 500 mM NaCl, 10 mM imidazole, pH 8). Bacterial cells were lysed by sonication on ice at 25 Amp for 1 h, the lysate was centrifuged at 18,000 rpm, 4 °C for 30 min to remove cellular debris. The cell supernatant was applied through Ni-NTA (Qiagen, Germantown, TN, USA) beads thrice before washing it with increasing concentrations of imidazole. […]

Row | Structure (SMILES) | Kd [1] [nM] | ΔH [1] [kcal/mol] | LPS binding, in words [1] | TΔS [1] [kcal/mol] | ΔG [1] [kcal/mol] | NPN fluorescence increase (ΔF), in words (E. coli cells [2]) | MIC [3] | change in zeta potential of E. coli cells, in words (E. coli cells [4]) | bacterial growth inhibition, in words [5] | MIC [6] | ΔH (LptAm protein of E. coli; 250 μM peptide into 25 μM LptAm, single site binding model) [kcal/mol] | LptAm binding, in words (LptAm protein of E. coli) | TΔS (LptAm protein of E. coli; LptAm, determined indirectly from thermodynamics equations) [kcal/mol] | surface charge neutralization compared to the other peptides, in words (E. coli cells [4]; at lower doses, 4-16 µM)
1 | CC[C@H](C)[C@H](NC(=O)[C@H](C)N)C(=O)N[C@H](C(=O)N[C@@H](Cc1ccc(O)cc1)C(=O)N[C@H]1CSSC[C@@H](C(=O)N[C@@H](CCC(N)=O)C(=O)N[C@@H](CCCNC(=N)N)C(=O)N[C@@H](CCSC)C(=O)O)NC(=O)[C@H](CCCCN)NC(=O)CNC(=O)[C@H]([C@@H](C)O)NC(=O)[C@H](CCCNC(=N)N)NC(=O)[C@H](CCCNC(=N)N)NC(=O)[C@H](CC(N)=O)NC1=O)[C@@H](C)CC [PM15A] | 330 | -8.74 | relatively high-affinity interactions with LPS compared to the parent peptide PM15 | 0.47 | -9.21 | higher increase in NPN fluorescence compared to the parent PM15 peptide | >16 (>16) µM | increase in zeta potential in a dose-dependent manner | – | – | – | – | – | –
2 | CC[C@H](C)[C@H](NC(=O)[C@@H](NC(=O)[C@@H](N)Cc1ccc(O)cc1)[C@@H](C)CC)C(=O)N[C@@H](Cc1ccc(O)cc1)C(=O)N[C@@H](CS)C(=O)N[C@@H](CC(N)=O)C(=O)N[C@@H](CCCNC(=N)N)C(=O)N[C@@H](CCCNC(=N)N)C(=O)N[C@H](C(=O)NCC(=O)N[C@@H](CCCCN)C(=O)N[C@@H](CS)C(=O)N[C@@H](CCC(N)=O)C(=O)N[C@@H](CCCNC(=N)N)C(=O)N[C@@H](CCSC)C(=O)O)[C@@H](C)O [PM15Y] | 280 | -11.79 | relatively high-affinity interactions with LPS compared to the parent peptide PM15 | -2.49 | -9.30 | higher increase in NPN fluorescence compared to the parent PM15 peptide | >16 (>16) µM | increase in zeta potential in a dose-dependent manner | able to inhibit growth of all the bacterial strains except for S. enterica | >16(>16) µM | -11.79 | bind to LptAm with high affinity | -2.49 | higher surface charge neutralization compared to PM15 and PM15A peptides
